Values quoted from earlier work as cited in PMC6832895, “Evaluation of Cyclic Peptide Inhibitors of the Grb7 Breast Cancer Target: Small Change in Cargo Results in Large Change in Cellular Activity” (Molecules, 2019).

By UniProt entry, the sequences of proteins in these tests, tags left out. Residues count along the entry.
UniProt Q14451, 431-527 limits assumed: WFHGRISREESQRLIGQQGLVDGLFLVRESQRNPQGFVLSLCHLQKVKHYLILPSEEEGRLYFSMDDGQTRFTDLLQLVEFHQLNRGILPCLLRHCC

Biological target: Grb7-SH2 domain (Homo sapiens, UniProt Q14451)
Details: Table S1; 50 mM Na3PO4, 150 mM NaCl, 1 mM DTT (pH 7.4); ref [2] Gunzburg et al., Sci. Rep. 2016; cited from earlier work

NC(=O)CC1NC(=O)C(CC(=O)O)NC(=O)C(Cc2ccc(O)cc2)NC(=O)CNC(=O)C(CCC(=O)O)NC(=O)C(Cc2ccccc2)NC(=O)C2COCC=CCOCC(NC1=O)C(=O)NC(Cc1ccccc1)C(=O)N1CCCC1C(=O)NC(C(N)=O)CSCC(=O)N2 (stereo not shown)
Kd: 1500 nM
